Molecular target: T1, SMVT (Canis lupus familiaris, UniProt A0A8I3MY61)
T1 sequence (A0A8I3MY61 1-636): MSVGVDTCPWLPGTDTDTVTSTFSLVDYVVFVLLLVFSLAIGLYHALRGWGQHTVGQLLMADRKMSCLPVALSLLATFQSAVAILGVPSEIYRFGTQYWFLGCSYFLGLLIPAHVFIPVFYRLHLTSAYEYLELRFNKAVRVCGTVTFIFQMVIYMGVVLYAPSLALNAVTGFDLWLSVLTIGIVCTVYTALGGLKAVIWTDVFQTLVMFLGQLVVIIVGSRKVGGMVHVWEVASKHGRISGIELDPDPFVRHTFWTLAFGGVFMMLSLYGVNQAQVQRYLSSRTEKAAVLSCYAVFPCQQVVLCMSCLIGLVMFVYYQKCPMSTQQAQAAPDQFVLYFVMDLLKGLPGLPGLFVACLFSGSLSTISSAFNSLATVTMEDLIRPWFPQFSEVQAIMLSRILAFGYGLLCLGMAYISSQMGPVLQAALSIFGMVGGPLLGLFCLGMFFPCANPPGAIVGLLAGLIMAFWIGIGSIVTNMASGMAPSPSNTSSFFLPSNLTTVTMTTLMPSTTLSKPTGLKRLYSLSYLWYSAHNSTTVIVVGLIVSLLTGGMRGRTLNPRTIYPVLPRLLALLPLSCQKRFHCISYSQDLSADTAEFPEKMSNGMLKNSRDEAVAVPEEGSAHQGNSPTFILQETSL
Settings: read-out: IC50 for inhibition of [3H] biotin uptake; MDCK-MDR1 cells, 0.1–100µM, 30 min

Question: `O=C(O)CCCC[C@@H]1SC[C@@H]2NC(=O)N[C@@H]21` [biotin, Biotin, reference compound] was tested. Which IC50 did it give?
Answer: 2.93 ± 0.06 µM
